According to US9023386B2, “Microspheres comprising nanocapsules containing a lipophilic drug” (Yissum Research Development Company of the Hebrew …, priority 2006, dated 2015):

Assay: In vitro release kinetics of DXPL from microparticles
Assay type: physicochemical
Settings: 10% acetonitrile in phosphate buffer pH 7.4, different EUDRAGIT blend coatings
Protocol: Owing to tacrolimus detection limit restrictions when sink conditions prevail, the in vitro kinetic experiments were carried out with DXPL using the ultrafiltration technique without any pressure [Magenhiem B, et al. A new in vitro technique for the evaluation of drug release profile from colloidal carriers-ultrafiltration technique at low pressure. Int J Pharm 94:115-123 (1993).].
The ultrafiltration cell device AMICON (Amicon Corp, Danvers, Mass., USA), was used. The filter used was ISOPORE™ 8.0 μm TEPT (Millipore, Bedford, Mass., USA). In this study sink conditions release were matched. […] At given time intervals 0.5 ml sample of the release medium was collected through the 8.0 μm filter which allowed nanocapsules to diffuse through such a filter. Then, 0.5 ml of methanol was added and vortexed to solubilize the nanocapsules. Thereafter, 3 ml of dichloromethane were added and the mixture was vortexed vigorously followed by centrifugation at 4000 rpm over 5 minutes. After centrifugation, the dichloromethane layer (lower layer) was transferred to a clean tube and evaporated under air to dryness. The residue was dissolved in 200 μl of methanol, and 50 μl were injected to HPLC under the conditions previously described.

Substance: Dexamethasone palmitate [DXPL]
- DXPL release profile from microspheres, in words: faster with the EUDRAGIT L:RS, 75:25 than with the RS:L, 75:25
